# Cyclic peptide permeability, from CycPeptMPDB

Source: CycPeptMPDB (Li et al. 2023), which took these values from Furukawa et al. 2016, doi:10.1021/acs.jmedchem.6b01246.

PAMPA measures passive passage through an artificial lipid membrane. Caco-2 values are permeabilities across monolayers of Caco-2 human intestinal cells. Values are log10 P with P in cm/s, so -5 is more permeable than -7.

The entry for CCCC[C@@H]1NC(=O)[C@H](CC(C)C)N(C)C(=O)CN(CC2CCCCC2)C(=O)[C@H](Cc2ccccc2)NC(=O)CN(CC(C)C)C(=O)[C@H]2CCCN2C1=O lists PAMPA -6.82 (log10 cm/s). Listed for CCCC[C@@H]1NC(=O)[C@H](CC(C)C)N(C)C(=O)CN(CCCc2ccccc2)C(=O)[C@H](C)NC(=O)CN(CC)C(=O)[C@H]2CCCN2C1=O: PAMPA -5.16 (log10 cm/s). For CCCC[C@@H]1NC(=O)[C@H](CC(C)C)N(C)C(=O)CN(CCCc2ccccc2)C(=O)[C@H](C)NC(=O)CN(CCN2CCOCC2)C(=O)[C@H]2CCCN2C1=O the data give PAMPA -5.86 (log10 cm/s). The entry for CCCC[C@@H]1NC(=O)[C@H](CC(C)C)N(C)C(=O)CN(CC2CCCCC2)C(=O)[C@H](CC(C)C)NC(=O)CN(Cc2cc(CC(C)C)on2)C(=O)[C@H]2CCCN2C1=O lists PAMPA -6.93 (log10 cm/s). CCCC[C@@H]1NC(=O)[C@H](CC(C)C)N(C)C(=O)CN(CCc2cccnc2)C(=O)[C@H](Cc2ccccc2)NC(=O)CN(CCCCc2ccccc2)C(=O)[C@H]2CCCN2C1=O is reported with PAMPA -6.40 (log10 cm/s).

CCCC[C@@H]1NC(=O)[C@H](CC(C)C)N(C)C(=O)CN(CCOC)C(=O)[C@H](CC(C)C)NC(=O)CN(Cc2ccccc2Cn2cccn2)C(=O)[C@H]2CCCN2C1=O is reported with PAMPA -5.23 (log10 cm/s). For CCCC[C@@H]1NC(=O)[C@H](CC(C)C)N(C)C(=O)CN(CC2CCCCC2)C(=O)[C@H](Cc2ccc3ccccc3c2)NC(=O)CN(CCCOC(C)C)C(=O)[C@H]2CCCN2C1=O the data give PAMPA -6.98 (log10 cm/s). The entry for CCCC[C@@H]1NC(=O)[C@H](CC(C)C)N(C)C(=O)CN(Cc2ccccc2)C(=O)[C@H](C)NC(=O)CN(CC(C)C)C(=O)[C@H]2CCCN2C1=O lists PAMPA -4.98 (log10 cm/s) and Caco-2 -5.41 (log10 cm/s). Listed for CCCC[C@@H]1NC(=O)[C@H](CC(C)C)N(C)C(=O)CN(CCCN2CCCC2=O)C(=O)[C@H](CC(C)C)NC(=O)CN(CCCCc2ccccc2)C(=O)[C@H]2CCCN2C1=O: PAMPA -5.90 (log10 cm/s). CCCC[C@@H]1NC(=O)[C@H](CC(C)C)N(C)C(=O)CN(CCc2cccnc2)C(=O)[C@H](Cc2ccc3ccccc3c2)NC(=O)CN(CC(C)C)C(=O)[C@H]2CCCN2C1=O has PAMPA -5.53 (log10 cm/s).

CCCC[C@@H]1NC(=O)[C@H](CC(C)C)N(C)C(=O)CN(CCCc2cnn(C)c2)C(=O)[C@H](C)NC(=O)CN(CC)C(=O)[C@H]2CCCN2C1=O has PAMPA -7.33 (log10 cm/s). The entry for CCCC[C@@H]1NC(=O)[C@H](CC(C)C)N(C)C(=O)CN(CCOc2ccccc2)C(=O)[C@H](Cc2ccccc2)NC(=O)CN(Cc2ccc3c(c2)OCO3)C(=O)[C@H]2CCCN2C1=O lists PAMPA -7.76 (log10 cm/s). Listed for CCCC[C@@H]1NC(=O)[C@H](CC(C)C)N(C)C(=O)CN(CCCc2ccccc2)C(=O)[C@H](Cc2ccccc2)NC(=O)CN(Cc2ccc3c(c2)OCO3)C(=O)[C@H]2CCCN2C1=O: PAMPA -8.01 (log10 cm/s).

Excerpt, the final 2 entries:

CCCC[C@@H]1NC(=O)[C@H](CC(C)C)N(C)C(=O)CN(CCOc2ccccc2)C(=O)[C@H](Cc2ccccc2)NC(=O)CN(Cc2ccc3c(c2)OCO3)C(=O)[C@H]2CCCN2C1=O has PAMPA -7.76 (log10 cm/s).
CCCC[C@@H]1NC(=O)[C@H](CC(C)C)N(C)C(=O)CN(CCCc2ccccc2)C(=O)[C@H](Cc2ccccc2)NC(=O)CN(Cc2ccc3c(c2)OCO3)C(=O)[C@H]2CCCN2C1=O has PAMPA -8.01 (log10 cm/s).

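The data file gives no further conditions (lipid, pH, time, direction or concentration), and values from different papers need not be comparable. Other peptides of the study may be missing here. Entries at the database's floor value (log10 P of -10) are not listed.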